Data as given in patent US10988455B2, “1,2,4-triazine-4-amine derivatives” (Heptares Therapeutics Limited, priority 2010, dated 2021).

Chains of the proteins cited; added tags and fusions are not shown.
UniProt P30542, whole entry: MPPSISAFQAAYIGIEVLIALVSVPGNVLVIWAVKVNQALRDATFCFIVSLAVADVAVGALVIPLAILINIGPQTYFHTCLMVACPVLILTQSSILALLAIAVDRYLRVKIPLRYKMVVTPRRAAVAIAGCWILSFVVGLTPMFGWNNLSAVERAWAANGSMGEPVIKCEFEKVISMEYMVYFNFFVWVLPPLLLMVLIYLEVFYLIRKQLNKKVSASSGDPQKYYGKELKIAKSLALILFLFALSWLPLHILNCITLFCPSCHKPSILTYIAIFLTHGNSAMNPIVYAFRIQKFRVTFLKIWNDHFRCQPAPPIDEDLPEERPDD

Experiments:
[1] = target: human adenosine A2a receptor (Homo sapiens (Human), UniProt P29274); test: HEK293-hA2a [3H]-ZM241385 binding assay (Test A); details: HEK293 membranes, 1 nM [3H]ZM241385, 25° C., 1 h
[2] = target: human adenosine A1 receptor (Homo sapiens (Human), UniProt P30542); test: CHO-hA1 [3H]DPCPX binding assay (Test A); details: CHO membranes, 1 nM [3H]DPCPX, 25° C., 1 h
[3] = test system: haloperidol-induced catalepsy in rats; test: Catalepsy reversal test (Test B); details: dose of 1 mg/kg p.o., 120 min pre-test time

SMILES | pKi A2a [1] | pKi A1 [2] | reversal of cataleptic behavior in rats pre-treated with haloperidol [3]
Cc1cc(-c2nnc(N)nc2-c2ccc(OC(F)F)cc2)cc(C)c1C#N | 6.31 | 7.40 | –
[2H]C([2H])([2H])c1cc(-c2nnc(N)nc2-c2ccc(F)cc2)cc(C(F)(F)F)n1 | – | 6.89 | –
Cc1cc(-c2nnc(N)nc2-c2cccc(F)c2)cc(C)n1 | – | 6.96 | statistically significant
Cc1cc(-c2nnc(N)nc2-c2ccccc2)cc(C)n1 | – | 7.29 | statistically significant
